{
  "sequences": {"note": "Protein sequences, listed by entry. Tags and fused reporters are not part of them. Residues count along the entry.", "UniProt P28482, 8-360 limits assumed": "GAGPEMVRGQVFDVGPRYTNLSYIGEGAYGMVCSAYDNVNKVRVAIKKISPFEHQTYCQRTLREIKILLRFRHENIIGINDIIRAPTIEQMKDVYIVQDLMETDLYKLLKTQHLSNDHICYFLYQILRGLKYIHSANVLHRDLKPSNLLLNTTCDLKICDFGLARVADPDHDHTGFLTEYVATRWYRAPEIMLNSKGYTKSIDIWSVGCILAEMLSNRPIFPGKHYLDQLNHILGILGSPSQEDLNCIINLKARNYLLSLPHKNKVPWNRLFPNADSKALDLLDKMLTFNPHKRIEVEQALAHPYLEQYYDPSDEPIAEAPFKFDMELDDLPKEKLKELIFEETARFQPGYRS"},
  "source": "patent EP2739618B1",
  "about": "“QUINAZOLINE COMPOUNDS AS SERINE/THREONINE KINASE INHIBITORS” (Array Biopharma, Inc., priority 2011, dated 2013)",
  "target": "human ERK-2 (Mitogen Activated Kinase 1) (Homo sapiens, UniProt P28482)",
  "experiment": "ERK-2 Enzymatic Assay",
  "type": "biochemical",
  "details": "TABLE II; 5nM ERK-2 enzyme, 25µM ATP, S/T17 peptide substrate; single assay or mean of multiple assays",
  "data": [
    {"smiles": "COc1ccc([C@H](NC(=O)c2cc(F)c3cnc(N[C@H]4C[C@H](F)C4)nc3c2)c2cnn(C)c2)cc1F", "values": [
      {"measurement": "IC50", "value": 4.5, "unit": "nM"}
    ]}
  ]
}
